Experiment: Ratio of MBC for bactericidal activity against methicillin resistant Staphylococcus aureus USA300 FPR3757 to MIC for antibacterial activity against community-associated methicillin-resistant Staphylococcus aureus USA300 FPR3757
Format: functional

| Structure (SMILES) | Ratio |
| --- | --- |
| FC(F)(F)c1ccc2c(Nc3ccc(Cl)c(Cl)c3)cc(C(F)(F)F)nc2c1 | 32 |
| O=c1cc(C(F)(F)F)[nH]c2cc(C(F)(F)F)cc(Nc3ccc(C(F)(F)F)cn3)c12 | 32 |
| FC(F)(F)c1ccc(Nc2cc(C(F)(F)F)nc3cc(C(F)(F)F)ccc23)nc1 | 32 |
| O=c1cc(C(F)(F)F)[nH]c2cc(C(F)(F)F)cc(N[C@H]3CC[C@H](C(F)(F)F)CC3)c12 | 8 |

— ChEMBL document CHEMBL5150021, “Identification of 5-(Aryl/Heteroaryl)amino-4-quinolones as Potent Membrane-Disrupting Agents to Combat Antibiotic-Resistant Gram-Positive Bacteria” (J Med Chem, 2022)
